As a reminder, the IC50 is the concentration that inhibits the measured activity by half. A low value points to inhibition by little substance.

By UniProt entry, the sequences of proteins in these tests, tags left out.
UniProt P06493, whole entry: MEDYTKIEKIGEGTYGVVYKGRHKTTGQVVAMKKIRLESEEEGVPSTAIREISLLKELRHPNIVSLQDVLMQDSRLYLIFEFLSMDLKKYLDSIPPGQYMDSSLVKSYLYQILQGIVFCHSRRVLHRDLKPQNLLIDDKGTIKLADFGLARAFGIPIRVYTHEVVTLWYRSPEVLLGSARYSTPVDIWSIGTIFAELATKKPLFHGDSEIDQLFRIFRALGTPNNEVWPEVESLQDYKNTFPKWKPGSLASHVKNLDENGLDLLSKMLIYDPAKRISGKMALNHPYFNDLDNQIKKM

The experiment concerns the target Cyclin-dependent kinase 1/cyclin B1 (Homo sapiens, UniProt P06493). It counts as protein-complex assay.

`O=C(NC1CCNCC1)c1n[nH]cc1NC(=O)c1c(F)cccc1F` came in with a concentration for half-maximal inhibition (IC50) of 594 nM.

The record behind these values is ChEMBL document CHEMBL4732230, “Design, synthesis, and biological evaluation of 4-benzoylamino-1H-pyrazole-3-carboxamide derivatives as potent CDK2 inhibitors” (Eur J Med Chem, 2021).
